According to PubChem BioAssay AID504382 (The Scripps Research Institute Molecular Screening Center, 2011):
The entries are a selection whose mix differs from that of the whole data set. Active and inactive are the calls of the source.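 The calls were made as follows: active = mean activation above a cutoff of low control average plus 3 SD from the earlier screen (cut at about 12% in these data); inactive = the rest.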

Test: IANBD-channel fluorescence artefacts in buffer – biochemical, artefact control for cardiac RTF calcium sensitizer project, confirmation (AID 504382)
Details: IANBD fluorescence interference counterscreen, EC20 Ca2+, at 7.2 µM, hits give high values, scaled: EC20 calcium 0, EC100 calcium 100
Method in brief: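 Doses – one dose of 7.2 µM, 0.7% DMSO · Buffer or medium – MOPS/KCl/MgCl2/EGTA/NTA/DTT buffer, pH 7.2 · Probe or stimulus – Ca2+ fixed at EC20, 0.472 mM · Measured by – fluorescence intensity, excitation 480 nm, emission 540 nm · Read-out – fluorescence interference versus control range · Timing – 15 min compound exposure at 25 °C · Replication – triplicate wells per compound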

SMILES | fluorescence artifact activation
CN(C)C(=O)c1c([N+](=O)[O-])cc([N+](=O)[O-])cc1[N+](=O)[O-] | inactive: 0.55%
Cc1cccc(C)c1OP(C)(=O)Nc1ccc(SC(F)(F)F)cc1 (configuration not stated) | inactive: 0.07%
